Assay results published in publication PMC5889090 (Journal of medicinal chemistry, 2017).

Tested on: zebrafish neuromast hair cells
Experiment: Zebrafish neuromast hair cell protection assay
Settings: against 200 μM neomycin

## CCN1CCc2c(sc(NC(=O)Nc3ccc(Cl)cc3)c2C(N)=O)C1.Cl [compound 1, 2-[3-(4-Chlorophenyl)ureido]-6-ethyl-4,5,6,7-tetrahydrothieno[2,3-c]pyridine-3-carboxamide]
  protection (hair cell survival): ~100%
